Measured values taken from patent US7033773B1, “Screening assays for G protein coupled receptor agonists and antagonists” (The General Hospital Corporation, priority 1997, dated 2006).

How the values were obtained:
rat PTHR = target: T1, rat PTHR (Rattus norvegicus, UniProt P25961); test: u-PA secretion bioassay in LLC-PK1 cells expressing rat PTHR; assay type: cell-based
T1 construct: expressed in transfected cells; host or cells: LLC-PK1 porcine renal epithelial cells (EW5; also EW29, AR-C38, AR-B44)
T1 sequence (P25961 27-591): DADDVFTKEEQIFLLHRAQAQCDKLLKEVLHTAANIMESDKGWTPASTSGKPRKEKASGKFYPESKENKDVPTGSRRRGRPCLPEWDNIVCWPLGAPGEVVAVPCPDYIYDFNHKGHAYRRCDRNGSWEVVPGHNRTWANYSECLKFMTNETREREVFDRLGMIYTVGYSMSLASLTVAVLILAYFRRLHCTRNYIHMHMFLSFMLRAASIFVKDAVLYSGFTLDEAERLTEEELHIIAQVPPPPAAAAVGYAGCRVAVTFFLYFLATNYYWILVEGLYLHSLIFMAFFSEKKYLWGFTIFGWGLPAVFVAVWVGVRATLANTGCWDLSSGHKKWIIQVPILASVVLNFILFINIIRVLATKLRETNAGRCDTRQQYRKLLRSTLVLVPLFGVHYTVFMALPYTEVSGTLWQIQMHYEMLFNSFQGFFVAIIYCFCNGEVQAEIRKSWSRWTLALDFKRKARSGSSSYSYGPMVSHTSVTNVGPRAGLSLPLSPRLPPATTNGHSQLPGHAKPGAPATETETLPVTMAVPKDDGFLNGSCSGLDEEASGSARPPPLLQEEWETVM

human PTH/PTHrP receptor [1] = target: T2, human PTH/PTHrP receptor (Homo sapiens, UniProt Q03431); test: Cytosolic free calcium (fura-2) in LLC-PK1 cells expressing human PTHR
T2 sequence (Q03431 27-593): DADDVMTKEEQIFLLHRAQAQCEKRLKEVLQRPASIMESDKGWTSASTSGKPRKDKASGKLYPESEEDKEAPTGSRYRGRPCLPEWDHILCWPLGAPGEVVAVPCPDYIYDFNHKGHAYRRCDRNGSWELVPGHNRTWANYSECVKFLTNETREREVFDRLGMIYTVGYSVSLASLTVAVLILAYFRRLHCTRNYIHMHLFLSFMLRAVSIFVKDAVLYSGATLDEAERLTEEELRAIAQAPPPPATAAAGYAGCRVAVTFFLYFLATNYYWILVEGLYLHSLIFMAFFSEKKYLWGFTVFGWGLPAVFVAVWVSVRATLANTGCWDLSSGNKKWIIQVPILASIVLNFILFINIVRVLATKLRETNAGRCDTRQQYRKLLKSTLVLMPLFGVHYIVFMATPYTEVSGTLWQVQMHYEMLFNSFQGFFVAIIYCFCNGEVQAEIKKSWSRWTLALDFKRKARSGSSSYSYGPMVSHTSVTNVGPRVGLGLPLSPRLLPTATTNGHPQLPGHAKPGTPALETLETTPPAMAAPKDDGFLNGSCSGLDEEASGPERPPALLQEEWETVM

human PTH/PTHrP receptor [2] = target: T2, human PTH/PTHrP receptor; test: IP3 production (PLC activation) in LLC-PK1 cells expressing human PTHR; assay type: cell-based; design: transfected with a full-length human PTH/PTHrP receptor cDNA; expressed in transfected cells; conditions: HKRK B28 cells; 1000 nM
Experimental: Cells were seeded into 24-well plates at a density of 2.5×10^5 cells/well and cultured for a further 2 days before study. The cells were labeled at 37° C. for 16 h before assay with 3 uCi/ml of [^3H]myo-inositol in assay medium (serum- and inositol-free DMEM (GIBCO-BRL, Grand Island, N.Y.) supplemented with 0.1% BSA). After washing the cells with prewarmed assay medium containing 30 mM LiCl, they were incubated with 0.25 ml of assay medium containing 30 mM LiCl and stimulators (or vehicle) at 37° C. for various intervals(1-30 min). IP3 formation was arrested by aspiration and immediate addition of 0.5 ml of ice-cold 5% TCA. […] After eluting other fractions (free [^3H]myo-inositol, glycerophosphate inositol, IP1, and IP2), IP3 fractions were collected and their content of radioactivity was determined by liquid scintillation spectrometry (Beckman, model LS 6000IC).
HKRK B7 cells and HKRK B28 cells, previously loaded with [^3H]myo-inositol, were incubated with each peptide (1000 nM) for 30 min or 4 min, respectively. The formation of IP3 is expressed as a percentage of the amount measured in vehicle-treated controls. […]

human PTH/PTHrP receptor [3] = target: T2, human PTH/PTHrP receptor; test: Urokinase-type plasminogen activator (u-PA) secretion bioassay in LLC-PK1 cells expressing human PTHR; conditions: AB45 cells (hPTHR + REV AB dominant-negative PKA inhibitor), 16 hr

- u-PA Activity (rat PTHR; EW5 cells, 320,000 rat PTHRs per cell, peptide 1000 nM, mean±SEM): 43.5 ± 1.8 units/well
- u-PA production at 16 hr (in words) (rat PTHR; EW5 cells, 100 nM of either peptide): identical
- time to peak of cytosolic free calcium elevation (human PTH/PTHrP receptor [1]; 100 nM peptide, HKRK B7 and HKRK B28): ≤ 20 s
- peak cytosolic free calcium (human PTH/PTHrP receptor [1]; 100 nM peptide, HKRK B7 and HKRK B28 monolayers, no significant difference): 400 to 600 nM
- time for calcium transient to approach basal levels (human PTH/PTHrP receptor [1]; AB45 cells): 2 to 3 min
- cytosolic calcium response in cAMP-resistant cells (human PTH/PTHrP receptor [1]; AB45 cells (370,000 hPTHRs/cell, co-express REV AB)): robust cytosolic calcium response
- time of decrease of IP3 to basal levels (human PTH/PTHrP receptor [2]): ≤ 10 min
- time of peak of transient IP3 formation (human PTH/PTHrP receptor [2]): 4 min
SMILES: CC[C@H](C)[C@H](NC(=O)[C@H](CCC(=O)O)NC(=O)[C@H](CO)NC(=O)[C@@H](NC(=O)[C@@H](N)CO)C(C)C)C(=O)N[C@@H](CCC(N)=O)C(=O)N[C@@H](CC(C)C)C(=O)N[C@@H](CCSC)C(=O)N[C@@H](Cc1c[nH]cn1)C(=O)N[C@@H](CC(N)=O)C(=O)N[C@@H](CC(C)C)C(=O)NCC(=O)N[C@@H](CCCCN)C(=O)N[C@@H](Cc1c[nH]cn1)C(=O)N[C@@H](CC(C)C)C(=O)N[C@@H](CC(N)=O)C(=O)N[C@@H](CO)C(=O)N[C@@H](CCSC)C(=O)N[C@@H](CCC(=O)O)C(=O)N[C@@H](CCCNC(=N)N)C(=O)N[C@H](C(=O)N[C@@H](CCC(=O)O)C(=O)N[C@@H](Cc1c[nH]c2ccccc12)C(=O)N[C@@H](CC(C)C)C(=O)N[C@@H](CCCNC(=N)N)C(=O)N[C@@H](CCCCN)C(=O)N[C@@H](CCCCN)C(=O)N[C@@H](CC(C)C)C(=O)N[C@@H](CCC(N)=O)C(=O)N[C@@H](CC(=O)O)C(=O)N[C@H](C(=O)N[C@@H](Cc1c[nH]cn1)C(=O)N[C@@H](CC(N)=O)C(=O)N[C@@H](Cc1ccc(O)cc1)C(N)=O)C(C)C)C(C)C [hPTH(1-34), [Tyr^34]hPTH(1-34)]
- u-PA response in cAMP-resistant cells (in words) (human PTH/PTHrP receptor [3]): dramatically attenuated but remained significantly greater than that achieved with a maximal concentration of 8BrcAMP
